Measured values as given in ChEMBL document CHEMBL5725597, “Substituted pyrrolo[3′,2′:5,6]pyrido[4,3-d]pyrimidines and JAK inhibitors comprising the same” (2017).

Protein sequences, listed by entry. Tags and fused reporters are not part of them. Lines headed by an entry give the natural chain unless they say otherwise; changes in a name come on top.
UniProt O60674: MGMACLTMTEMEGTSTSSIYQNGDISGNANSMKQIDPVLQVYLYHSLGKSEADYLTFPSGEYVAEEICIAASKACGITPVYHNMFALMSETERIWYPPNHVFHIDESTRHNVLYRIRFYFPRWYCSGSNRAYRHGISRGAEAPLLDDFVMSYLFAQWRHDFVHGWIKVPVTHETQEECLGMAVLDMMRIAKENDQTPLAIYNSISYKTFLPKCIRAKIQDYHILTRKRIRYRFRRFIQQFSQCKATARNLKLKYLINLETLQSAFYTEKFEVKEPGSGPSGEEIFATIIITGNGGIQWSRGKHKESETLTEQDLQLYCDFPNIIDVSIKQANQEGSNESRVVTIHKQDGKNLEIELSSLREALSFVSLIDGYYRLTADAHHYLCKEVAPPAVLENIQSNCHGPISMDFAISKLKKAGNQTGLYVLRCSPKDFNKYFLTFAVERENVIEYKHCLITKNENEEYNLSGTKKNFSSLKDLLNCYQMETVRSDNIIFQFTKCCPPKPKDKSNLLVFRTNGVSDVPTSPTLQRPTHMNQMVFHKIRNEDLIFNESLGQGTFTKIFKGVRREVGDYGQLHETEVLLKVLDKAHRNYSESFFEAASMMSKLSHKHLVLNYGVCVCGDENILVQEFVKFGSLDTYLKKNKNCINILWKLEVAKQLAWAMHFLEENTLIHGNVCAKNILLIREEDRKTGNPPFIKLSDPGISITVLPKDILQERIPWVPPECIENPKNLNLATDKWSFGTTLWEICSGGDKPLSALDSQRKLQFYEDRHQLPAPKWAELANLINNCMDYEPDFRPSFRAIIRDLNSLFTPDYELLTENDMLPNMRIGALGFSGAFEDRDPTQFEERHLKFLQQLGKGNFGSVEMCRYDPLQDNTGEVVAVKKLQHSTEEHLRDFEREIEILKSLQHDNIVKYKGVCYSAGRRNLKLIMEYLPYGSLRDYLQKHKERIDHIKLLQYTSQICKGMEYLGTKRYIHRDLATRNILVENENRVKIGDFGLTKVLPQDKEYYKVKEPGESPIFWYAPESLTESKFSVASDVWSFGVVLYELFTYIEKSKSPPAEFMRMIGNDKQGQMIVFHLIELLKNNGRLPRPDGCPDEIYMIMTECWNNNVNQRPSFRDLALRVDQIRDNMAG
UniProt P29597: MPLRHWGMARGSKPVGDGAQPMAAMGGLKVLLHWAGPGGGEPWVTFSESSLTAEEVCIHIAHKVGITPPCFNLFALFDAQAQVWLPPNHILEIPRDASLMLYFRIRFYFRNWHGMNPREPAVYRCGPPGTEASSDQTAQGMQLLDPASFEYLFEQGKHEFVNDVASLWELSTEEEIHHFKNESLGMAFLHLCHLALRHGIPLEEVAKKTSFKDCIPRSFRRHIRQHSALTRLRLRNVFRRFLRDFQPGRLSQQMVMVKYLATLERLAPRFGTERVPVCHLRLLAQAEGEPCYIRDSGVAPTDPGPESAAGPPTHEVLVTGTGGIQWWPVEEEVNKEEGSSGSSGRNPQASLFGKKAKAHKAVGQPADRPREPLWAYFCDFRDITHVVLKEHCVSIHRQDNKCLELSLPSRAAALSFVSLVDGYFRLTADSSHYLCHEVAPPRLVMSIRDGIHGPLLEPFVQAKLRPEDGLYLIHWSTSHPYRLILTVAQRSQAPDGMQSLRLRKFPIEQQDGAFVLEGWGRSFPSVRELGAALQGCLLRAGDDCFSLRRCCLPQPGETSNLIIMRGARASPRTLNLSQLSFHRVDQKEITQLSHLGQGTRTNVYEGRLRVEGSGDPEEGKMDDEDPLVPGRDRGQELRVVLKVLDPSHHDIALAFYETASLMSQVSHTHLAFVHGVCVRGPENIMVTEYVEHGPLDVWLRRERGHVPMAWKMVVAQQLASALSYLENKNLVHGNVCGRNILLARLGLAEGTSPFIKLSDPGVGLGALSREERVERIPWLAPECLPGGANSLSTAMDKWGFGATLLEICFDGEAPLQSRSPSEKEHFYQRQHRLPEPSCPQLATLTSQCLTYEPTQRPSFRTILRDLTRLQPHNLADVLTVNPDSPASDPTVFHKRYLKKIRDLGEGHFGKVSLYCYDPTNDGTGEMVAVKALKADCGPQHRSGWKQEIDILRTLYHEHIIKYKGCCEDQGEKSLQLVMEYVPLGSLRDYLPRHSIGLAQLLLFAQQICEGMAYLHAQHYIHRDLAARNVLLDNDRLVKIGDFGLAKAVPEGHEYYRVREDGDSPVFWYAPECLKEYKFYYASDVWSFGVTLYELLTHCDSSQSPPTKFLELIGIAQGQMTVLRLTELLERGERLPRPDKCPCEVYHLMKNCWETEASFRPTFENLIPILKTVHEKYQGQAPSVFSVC
UniProt P23458: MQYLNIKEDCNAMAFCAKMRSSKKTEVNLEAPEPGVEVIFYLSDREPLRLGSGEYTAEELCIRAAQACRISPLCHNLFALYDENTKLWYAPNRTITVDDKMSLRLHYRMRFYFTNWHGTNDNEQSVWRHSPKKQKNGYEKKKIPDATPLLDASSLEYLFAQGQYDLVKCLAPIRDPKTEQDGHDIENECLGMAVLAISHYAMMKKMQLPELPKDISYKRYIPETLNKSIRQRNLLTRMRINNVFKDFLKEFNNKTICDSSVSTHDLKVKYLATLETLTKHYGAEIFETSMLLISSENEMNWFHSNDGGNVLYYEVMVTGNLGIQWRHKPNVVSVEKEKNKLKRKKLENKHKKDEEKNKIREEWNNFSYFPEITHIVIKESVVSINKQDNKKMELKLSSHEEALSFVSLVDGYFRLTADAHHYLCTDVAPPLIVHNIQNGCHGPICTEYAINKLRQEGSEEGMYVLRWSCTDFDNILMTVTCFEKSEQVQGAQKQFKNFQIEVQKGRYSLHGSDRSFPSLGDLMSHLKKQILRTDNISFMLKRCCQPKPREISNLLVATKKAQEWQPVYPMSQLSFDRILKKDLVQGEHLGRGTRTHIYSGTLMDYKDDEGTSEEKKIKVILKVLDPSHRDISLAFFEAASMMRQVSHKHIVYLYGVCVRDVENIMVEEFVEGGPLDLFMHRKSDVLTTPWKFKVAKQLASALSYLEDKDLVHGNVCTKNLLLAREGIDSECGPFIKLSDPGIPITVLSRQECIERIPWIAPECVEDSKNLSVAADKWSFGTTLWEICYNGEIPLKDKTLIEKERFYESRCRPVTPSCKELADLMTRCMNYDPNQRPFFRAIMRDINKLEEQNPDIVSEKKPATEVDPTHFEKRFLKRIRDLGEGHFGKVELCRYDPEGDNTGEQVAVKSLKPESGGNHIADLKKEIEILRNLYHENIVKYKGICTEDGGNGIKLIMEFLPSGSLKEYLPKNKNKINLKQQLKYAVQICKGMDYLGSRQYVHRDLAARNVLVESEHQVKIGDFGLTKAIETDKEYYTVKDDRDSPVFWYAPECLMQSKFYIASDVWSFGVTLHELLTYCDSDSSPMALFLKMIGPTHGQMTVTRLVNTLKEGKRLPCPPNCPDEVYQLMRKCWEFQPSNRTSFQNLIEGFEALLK

How the values were obtained:
[1] = target: Tyrosine-protein kinase JAK2 (Homo sapiens, UniProt O60674); assay: Enzyme Assay: JAK1, JAK2, JAK3 and Tyk2 were purchased from Carna Biosciences, Inc. As the substrate, LANCE Ultra ULight-JAK1 Peptide (manufactured by PerkinElmer Co., Ltd. (PE)) was used. Dilute solutions of compounds and enzymes in assay buffer (50 mM HEPES pH7.5, 1 mM EGTA, 1 mM MgCl2, 2 mM DTT, 0.01% Tween20) were dispensed into wells of a 384-well black plate. After 5 minutes of …
[2] = target: Non-receptor tyrosine-protein kinase TYK2 (Homo sapiens, UniProt P29597); assay: as above
[3] = target: T1, Tyrosine-protein kinase JAK3 (Homo sapiens, UniProt P52333)
T1 sequence (P52333 whole entry): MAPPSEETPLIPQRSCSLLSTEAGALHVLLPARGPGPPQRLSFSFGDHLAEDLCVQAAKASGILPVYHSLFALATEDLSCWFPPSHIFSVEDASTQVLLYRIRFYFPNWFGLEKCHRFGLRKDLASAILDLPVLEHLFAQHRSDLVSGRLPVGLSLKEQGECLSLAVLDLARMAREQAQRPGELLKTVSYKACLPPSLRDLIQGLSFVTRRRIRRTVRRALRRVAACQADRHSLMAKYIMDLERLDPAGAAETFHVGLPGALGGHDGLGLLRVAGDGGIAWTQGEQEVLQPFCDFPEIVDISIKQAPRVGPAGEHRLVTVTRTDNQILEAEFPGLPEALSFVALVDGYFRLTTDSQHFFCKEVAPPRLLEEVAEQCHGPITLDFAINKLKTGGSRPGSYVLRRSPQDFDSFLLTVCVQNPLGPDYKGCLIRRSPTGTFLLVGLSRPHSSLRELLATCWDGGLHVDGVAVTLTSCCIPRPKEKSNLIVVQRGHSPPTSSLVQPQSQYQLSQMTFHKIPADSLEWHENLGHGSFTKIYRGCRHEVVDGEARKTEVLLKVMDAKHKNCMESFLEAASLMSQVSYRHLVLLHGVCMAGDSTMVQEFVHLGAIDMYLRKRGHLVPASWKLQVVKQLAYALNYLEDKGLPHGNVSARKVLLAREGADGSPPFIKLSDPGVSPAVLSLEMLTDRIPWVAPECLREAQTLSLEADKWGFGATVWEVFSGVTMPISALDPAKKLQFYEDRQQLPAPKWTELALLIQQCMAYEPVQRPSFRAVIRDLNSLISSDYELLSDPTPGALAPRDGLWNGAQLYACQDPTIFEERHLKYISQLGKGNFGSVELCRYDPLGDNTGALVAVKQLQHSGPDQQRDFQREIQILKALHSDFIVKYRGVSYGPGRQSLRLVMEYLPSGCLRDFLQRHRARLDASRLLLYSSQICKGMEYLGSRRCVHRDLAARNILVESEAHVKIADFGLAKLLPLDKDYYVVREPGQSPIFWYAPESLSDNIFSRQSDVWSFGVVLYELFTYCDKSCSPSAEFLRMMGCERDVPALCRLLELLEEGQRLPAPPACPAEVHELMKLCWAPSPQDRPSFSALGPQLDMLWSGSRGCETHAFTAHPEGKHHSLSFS

[4] = target: Tyrosine-protein kinase JAK1 (Homo sapiens, UniProt P23458)

Row | SMILES | IC50 [1] | IC50 [2] | IC50 [3] | IC50 [4]
1 | Fc1cccc(CN2CCC(c3nnn4cnc5[nH]ccc5c34)CC2)c1 | 20 nM |  |  | 
2 | OC[C@H]1CC[C@H](c2nnn3cnc4[nH]ccc4c23)CC1 |  | 1600 nM |  | 
3 | N#Cc1ccc(CN2CCCC(c3nnn4cnc5[nH]ccc5c34)C2)cc1 (stereo not given) |  |  | 370 nM | 
4 | FC(F)(F)c1ccc(CN2CCCC(c3nnn4cnc5[nH]ccc5c34)C2)cc1 (racemic) |  |  | 100 nM | 
5 | N#CCC(=O)N1CCCC(c2ncn3cnc4[nH]ccc4c23)C1 (racemic) | 100 nM |  |  | 30 nM
6 | c1cc2c(ncn3nnc(C4CCCN(Cc5cncs5)C4)c23)[nH]1 (racemic) | 1300 nM | 1500 nM | 2200 nM | 290 nM
